Sequences of proteins named here, by UniProt entry; tags and fusion partners are left off.
UniProt P42866, whole entry: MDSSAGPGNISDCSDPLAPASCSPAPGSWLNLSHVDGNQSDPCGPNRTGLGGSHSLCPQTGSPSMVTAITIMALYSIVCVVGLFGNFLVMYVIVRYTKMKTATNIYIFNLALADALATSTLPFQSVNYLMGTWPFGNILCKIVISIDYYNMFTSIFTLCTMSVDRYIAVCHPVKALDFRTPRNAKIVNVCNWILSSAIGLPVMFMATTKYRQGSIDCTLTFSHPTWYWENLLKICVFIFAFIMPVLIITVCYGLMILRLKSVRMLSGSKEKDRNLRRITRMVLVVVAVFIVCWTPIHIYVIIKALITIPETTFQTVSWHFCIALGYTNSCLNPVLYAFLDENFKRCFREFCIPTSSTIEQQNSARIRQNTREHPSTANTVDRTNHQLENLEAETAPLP
UniProt P32300, whole entry: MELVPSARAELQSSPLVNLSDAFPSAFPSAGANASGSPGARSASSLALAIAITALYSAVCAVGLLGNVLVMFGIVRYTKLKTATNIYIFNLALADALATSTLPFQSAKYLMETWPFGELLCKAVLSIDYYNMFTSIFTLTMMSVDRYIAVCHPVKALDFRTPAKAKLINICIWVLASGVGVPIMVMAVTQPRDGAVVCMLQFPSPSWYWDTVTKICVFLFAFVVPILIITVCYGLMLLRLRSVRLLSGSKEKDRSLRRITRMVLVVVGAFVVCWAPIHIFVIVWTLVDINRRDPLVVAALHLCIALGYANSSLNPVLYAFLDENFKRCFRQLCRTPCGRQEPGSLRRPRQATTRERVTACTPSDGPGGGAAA

In patent publication US6855807B1 (priority 1999, dated 2005):

How the values were obtained:
mu receptors [1] = biological target: T1, mu receptors (Mus musculus, UniProt P42866); assay type: binding
T1 construct: FLAG; expressed in transfected cells; host or cells: CHO

mu-delta heterodimers = mu-delta heterodimers (Mus musculus, UniProt P32300+P42866)
mu and delta receptors = biological target: T2, mu and delta receptors (Mus musculus, UniProt P32300+P42866); assay: Whole cell 3H-DAMGO binding, cells exogenously co-expressing mu and delta receptors; conditions: delta subtype selective agonist present
T2 construct: FLAG; myc; expressed in transfected cells; host or cells: CHO

mu receptors [2] = biological target: T1, mu receptors; assay: Whole cell 3H-DAMGO binding, cells expressing mu receptors alone; conditions: cells expressing only mu receptors

Substance	super high affinity site (mu receptors [1])	competition for [3H]-diprenorphine (in words) (mu-delta heterodimers)	increase in the population of receptors binding 3H-DAMGO (mu and delta receptors)	increase in 3H-DAMGO binding sites (mu receptors [2])
CTOP	not seen	additional super high affinity; also recorded: single binding site; also recorded: second super high affinity binding site		
deltorphin II			increase in the population of receptors	not seen

“Also recorded” adds a separate entry of the source.
